Data reported in patent publication US9085540B2, “Pyrazinecarboxamide compound” (Astellas Pharma Inc., priority 2012, dated 2015).

Amino acid sequences for entries named in this document (tags omitted). Residues count along the entry.
UniProt P00533, 25-1210 T790M/L858R: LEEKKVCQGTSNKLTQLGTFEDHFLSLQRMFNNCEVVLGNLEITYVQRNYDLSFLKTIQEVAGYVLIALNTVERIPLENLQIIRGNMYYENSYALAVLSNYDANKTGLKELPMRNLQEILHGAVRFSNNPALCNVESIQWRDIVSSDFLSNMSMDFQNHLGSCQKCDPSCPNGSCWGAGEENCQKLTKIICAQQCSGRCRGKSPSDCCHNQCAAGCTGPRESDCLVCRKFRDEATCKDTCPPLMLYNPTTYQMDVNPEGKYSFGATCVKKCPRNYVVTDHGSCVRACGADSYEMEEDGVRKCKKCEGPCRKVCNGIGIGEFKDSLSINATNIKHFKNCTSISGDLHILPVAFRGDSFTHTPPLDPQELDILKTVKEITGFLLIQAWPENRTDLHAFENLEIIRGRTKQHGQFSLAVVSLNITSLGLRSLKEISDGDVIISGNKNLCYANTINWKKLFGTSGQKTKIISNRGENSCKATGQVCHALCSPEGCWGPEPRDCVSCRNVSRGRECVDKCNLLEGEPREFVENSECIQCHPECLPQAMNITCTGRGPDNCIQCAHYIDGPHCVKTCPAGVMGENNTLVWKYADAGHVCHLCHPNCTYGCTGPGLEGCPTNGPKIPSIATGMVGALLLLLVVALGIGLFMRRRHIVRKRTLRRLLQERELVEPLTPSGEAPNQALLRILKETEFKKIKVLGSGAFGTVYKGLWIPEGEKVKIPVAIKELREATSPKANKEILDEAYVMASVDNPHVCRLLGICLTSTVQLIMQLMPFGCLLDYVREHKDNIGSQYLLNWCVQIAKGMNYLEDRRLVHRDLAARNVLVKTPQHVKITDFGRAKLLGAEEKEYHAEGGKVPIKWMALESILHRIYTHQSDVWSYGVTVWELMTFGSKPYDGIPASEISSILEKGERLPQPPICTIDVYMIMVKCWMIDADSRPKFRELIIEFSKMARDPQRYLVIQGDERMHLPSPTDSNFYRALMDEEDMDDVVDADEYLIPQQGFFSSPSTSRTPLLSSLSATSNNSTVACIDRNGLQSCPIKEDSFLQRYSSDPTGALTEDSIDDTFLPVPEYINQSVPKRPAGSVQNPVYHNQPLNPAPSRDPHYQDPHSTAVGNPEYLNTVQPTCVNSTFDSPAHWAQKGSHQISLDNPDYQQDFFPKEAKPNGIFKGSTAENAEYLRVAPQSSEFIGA

Tests used:
[1] = tested on: Ba/F3 cells expressing EGFR T790M/L858R mutation kinase; test: Inhibition of EGFR T790M/L858R mutation kinase-dependent cell proliferation (Cell Titer-Glo); type: cell-based; conditions: Mus musculus, BaF3, 48 h, cultured 2 days
Method: In a 96-well plate (Iwaki), Ba/F3 cells were seeded at 500 cells per well in an RPMI1640 medium (Invitrogen) containing 10% fetal bovine serum, followed by the addition of the test compound (final concentrations ranging from 1 μM to 0.1 nM) and DMSO which was a solvent of the test compound as a negative control. In the presence of 5% CO2, the cells were cultured at 37° C. for 2 days. A cell counting reagent (Cell Titer-Glo; Promega) was added thereto, and the light emitting intensity was measured using a luminometer (Envison or ARVO; PerkinElmer Inc.). […] The inhibitory rate of the test compound was calculated and the concentration causing 50% inhibition (IC50 value) was determined by a logistic regression method.

EGFR [T790M/L858R] = EGFR [T790M/L858R] (Homo sapiens (Human), UniProt P00533, L858R/T790M); test: Inhibitory activity on EGFR T790M/L858R mutation kinase (LabChip peptide substrate phosphorylation); type: biochemical; conditions: EGFR [T790M/L858R] enzyme, 2 hours preincubation, ATP 1000 μM
Method: The phosphorylation activity on the peptide substrate of EGFR was investigated using LabChip (trademark) Systems (Caliper Life Sciences, Inc.). […] (Carna Biosciences, Inc.) was used. […] Then, the substrate and the ATP solution were added thereto, followed by reaction for 1 hour. An ATP concentration of 1000 μM was used. A reaction liquid containing the enzyme protein but no test compound (in which the DMSO alone was added as a solvent at 0.4% in place of the test compound) was prepared, followed by reaction in the same manner with or without ATP addition. […] The concentration causing 50% inhibition (IC50) was calculated for the test compound by a logistic regression method.

| Compound | IC50 [1] | IC50 (EGFR [T790M/L858R]) |
| --- | --- | --- |
| C=CC(=O)N1CCC(c2nc(Nc3ccc(N4CCC(N5CCN(C)CC5)CC4)c(C)c3)c(C(N)=O)nc2CC)CC1 [Example 24] | 2.1 nM | 1.1 nM |
| C=CC(=O)Nc1cccc(Oc2nc(Nc3ccc(N4CCN(CC)CC4)cc3)c(C(N)=O)nc2CC)c1 [Example 43] | 0.66 nM | 1.4 nM |
| C=CC(=O)Nc1cccc(Oc2nc(Nc3ccc(N4CCN(C)[C@@H](C)C4)cc3)c(C(N)=O)nc2CC)c1 [Example 63] | 1.2 nM | 1.8 nM |
| C=CC(=O)Nc1cccc(Oc2nc(Nc3ccc(N4CCN(C)[C@H](C)C4)cc3)c(C(N)=O)nc2CC)c1 [Example 64] | 0.56 nM | 1.7 nM |
